PubChem BioAssay (NCATS)
Several values for one entry are separate records, joined by “and”; a condition that tells them apart may be missing. Identical values can stand only once. The list shows a part of the results, in another mix than the full data. Results filed as inconclusive are left out. Activity calls are given as the source filed them.

Legend:
[1] = qHTS assay for small molecule agonists of the antioxidant response element (ARE) signaling pathway measured by Nrf2-dependant transcriptional activity - cell viability counter screen (AID 720653; active = well fitted curve in the direction sought with a large enough effect in the repeat runs; an effect the other way counts as inactive or inconclusive; note: % is set by controls: 0 for no effect and ±100 for the full control effect); conditions: ARE-bla HepG2 viability, CellTiter-Glo ATP luminescence, 16 h; stronger effect = lower value
In short: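 ARE-bla HepG2 cells (2,000/well) rested 5 hrs at 37C/5% CO2, then exposed to compounds in DMSO for 16 hrs. Viability was read in the same wells as intracellular ATP by luminescence, 30 min at room temperature after reagent addition.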

[2] = qHTS assay for cell viability of HEK293 cells (AID 743288; active = well fitted curve in the direction sought with a large enough effect; an effect the other way counts as inactive or inconclusive; note: % is set by controls: 0 for no effect and ±100 for the full control effect; nearly all actives have a fitted effect of over 50% in size); conditions: ATP luminescence (CellTiter-Glo), 18 h, stronger effect = lower value
In short: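 Viable-cell counts were inferred from luciferase-based ATP content in HEK293 cells seeded at 2,000/well, pre-incubated ≥5 h, then dosed with DMSO-solubilised compounds for 18 h at 37 C.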

[3] = qHTS assay for cell viability of the p53RE-bla HCT-116 cell line (AID 743292; active = well fitted curve in the direction sought with a large enough effect; an effect the other way counts as inactive or inconclusive; note: % is set by controls: 0 for no effect and ±100 for the full control effect; nearly all actives have a fitted effect of over 55% in size); conditions: p53RE-bla HCT-116 viability, ATP luminescence, 16 h; at 95 µM (top of the series)
From the text: U.S. Tox21 Program National Center for Advancing Translational Sciences [NCATS] NIH Chemical Genomics Center [NCGC] U.S. Environmental Protection Agency [EPA] National Institutes of Environmental Health Sciences [NIEHS] National Toxicology Program [NTP] U.S. Food and Drug Administration [FDA] Tox21 Assay Overview: The CellTiter-Glo Luminescent Cell Viability Assay (Promega, Madison, WI) is a homogeneous method to determine the number of viable cells in culture based on quantitation of the ATP present, which signals the presence of metabolically active cells. This cell viability assay was used to screen environmental chemicals in the CellSensor p53RE-bla HCT-116 cell line (Invitrogen).
Tox21 Assay Protocol Summary: Cell viability after compound treatment was measured using a luciferase-coupled ATP quantitation assay (CellTiter-Glo viability assay, Promega, Madison, WI) in CellSensor p53RE-bla HCT-116 cell line (Invitrogen). Total intracellular ATP content corresponds to the number of metabolically competent cells after compound treatment. The cells were dispensed at 4,000 cells/5 uL/well in 1,536-well white/solid bottom assay plates using a Flying Reagent Dispenser (Aurora Discovery, San Diego, CA). […] After 30 min incubation at room temperature, the luminescence intensity of the plates was measured using a ViewLux plate reader (PerkinElmer, Shelton, CT).

[4] = qHTS profiling of the MIPE4 collection as inhibitors of Plasmodium falciparum (3D7) proliferation (AID 743344);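 note: scaled between DMSO vehicle wells and 0.29 µM artemisinin as full inhibition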; conditions: P. falciparum 3D7 in erythrocytes, SYBR Green DNA fluorescence, 72 h; at 28.5 µM (top of the series)
[5] = qHTS profiling of the MIPE4 collection as inhibitors of Plasmodium falciparum (DD2) proliferation (AID 743345); conditions: P. falciparum Dd2 in erythrocytes, SYBR Green DNA, 72 h; at 28.5 µM (top of the series)
[6] = qHTS profiling of the MIPE4 collection as inhibitors of Plasmodium falciparum (DD2) proliferation (Rep 2) (AID 743346); conditions: P. falciparum Dd2 in erythrocytes, SYBR Green DNA, 72 h; at 28.5 µM (top of the series)
[7] = qHTS profiling of the MIPE4 collection as inhibitors of Plasmodium falciparum (HB3) proliferation (AID 743347);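 note: plate controls were DMSO vehicle wells for no effect and artemisinin wells for full effect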; conditions: P. falciparum HB3 in erythrocytes, SYBR Green DNA, 72 h; at 28.5 µM (top of the series)
[8] = Ebola virus entry assay, blue channel fluorescence

Structure (SMILES)	max response [1]	max response [2]	activity change, negative = cytotoxicity [3]	parasite growth, % of DMSO control [4] [%]	parasite growth remaining, % of DMSO control (lower = more inhibition) [5] [%]	parasite growth, % of control (lower = inhibition) [6] [%]	growth, % of control [7] [%]	outcome [8]
O=[N+]([O-])C(Cl)(Cl)Cl	inactive: 5.91% and inactive: -6.91%	inactive: 0.78% and inactive: -10.1%	inactive: 1.61% and inactive: 0.3%					
CN(CCCl)CCCl	inactive: -22.2%			86.2	68.4	118	105	inactive
